# The list shows a part of the results, in another mix than the full data. The source made the active and inactive calls.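 How the source made its calls: active means compounds that block the splicing kinase Clk1 enough to give a fitted half-inhibition concentration; inactive means the rest.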
# The chains behind the UniProt entries cited, without tags or fusion partners. Where a name states a change or a piece, a line headed by the entry shows the natural chain unless it says otherwise.
# UniProt P49759: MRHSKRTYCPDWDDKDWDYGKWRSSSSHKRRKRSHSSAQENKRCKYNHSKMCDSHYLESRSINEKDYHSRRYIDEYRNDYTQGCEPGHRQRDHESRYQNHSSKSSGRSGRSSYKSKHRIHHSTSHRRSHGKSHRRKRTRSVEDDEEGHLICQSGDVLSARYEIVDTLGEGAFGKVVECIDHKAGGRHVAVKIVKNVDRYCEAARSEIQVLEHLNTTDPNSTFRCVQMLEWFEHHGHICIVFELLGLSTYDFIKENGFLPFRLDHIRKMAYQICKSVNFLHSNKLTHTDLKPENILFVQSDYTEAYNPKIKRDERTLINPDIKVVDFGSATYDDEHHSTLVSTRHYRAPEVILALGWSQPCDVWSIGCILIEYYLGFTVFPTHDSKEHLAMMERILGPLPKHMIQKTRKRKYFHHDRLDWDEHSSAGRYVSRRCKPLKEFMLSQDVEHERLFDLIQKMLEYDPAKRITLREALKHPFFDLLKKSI
# Target: Dual specificity protein kinase CLK1 (Homo sapiens) (UniProt P49759)
# Assay: Kinase Inhibition Study on Inhibitors of CDC-like Kinase 1 (Reaction Biology data)
# Details: recombinant Clk1 kinase assay, 10 uM ATP
# Text: NIH Molecular Libraries Probe Production Centers Network [MLPCN] NIH Chemical Genomics Center [NCGC] MLPCN Grant: 1R03MH084827-01 Assay Submitter (PI): Tom Misteli NCGC Assay Overview: Alternative splicing of pre-mRNAs plays a major role in the regulation of eukaryotic gene expression. Alternative splicing is now thought to be one of the primary reasons for the complexity of higher organisms leading to an average of three protein isoforms per gene. Aberrant splicing can lead to a number of diseases and is known to play a role in rare genetic diseases such as progeria syndrome. Hutchinson-Gilford Progeria Syndrome (HGPS) is a pediatric premature aging disease caused by a spontaneous mutation in the lamin A/C (LMNA) gene due to a single point mutation in the lamin A gene effecting 1 in 4 million people. To identify both specific splicing modulators of the lamin A gene as well as general splicing modulators, a cell-based HTS assay was developed using a minigene reporter system (AIDs, 1459 & 1487). […] This AID summarizes the characterization of lead compounds in Clk1.
# All kinase reactions were performed using 10 uM ATP in the assay. 100% activity was taken from kinase reactions with DMSO alone (the vehicle used for compound stock solutions).
row,SMILES,Potency
1,c1coc(CCNc2ncnc3ccc(-c4ccc5c(c4)OCO5)cc23)c1,active: 130 nM
